Test results from US20180355059A1.

molecular target: recombinant human PCSK9^D374Y protein (human) (UniProt Q8NBP7); assay: cell-based or functional assay

Substance | IC50 (nM), LDL uptake by HepG2 cells [nM]
AF-mab023_14 (antibody; biotinylated in the ELISA assays) | 1.25
AF-mab023_11 (antibody; biotinylated in the ELISA assays) | 1.28
AF-mab023_12 (antibody; biotinylated in the ELISA assays) | 1.21
AF-mab023_01 (antibody; biotinylated in the ELISA assays) | 1.2
AF-mab023_18 (antibody; biotinylated in the ELISA assays) | 0.99
